# Yeast mating assay 1: variants of the scFv Ab-14

From the AlphaSeq antibody data of Engelhart et al. 2022 (doi:10.1038/s41597-022-01779-4), copy in the FLAb collection.

Target peptide (SARS-CoV-2 spike, HR2 region): PDVDLGDISGINAS

Parent scFv Ab-14: VH joined to VL by the linker GGGGSGGGGSGGGGS. Changes lie in the light chain CDRs alone.
VH: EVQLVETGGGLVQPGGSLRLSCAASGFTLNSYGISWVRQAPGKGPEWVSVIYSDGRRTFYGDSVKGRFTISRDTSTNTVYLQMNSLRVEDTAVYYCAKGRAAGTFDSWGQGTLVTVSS
VL: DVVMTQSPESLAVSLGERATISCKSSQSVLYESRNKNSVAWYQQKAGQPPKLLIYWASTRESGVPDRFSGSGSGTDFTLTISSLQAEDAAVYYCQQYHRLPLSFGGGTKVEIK

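Phage display of a naive human antibody library on the peptide gave the parent. Library AAYL50 holds single substitutions and randomly drawn double and triple substitutions in the CDRs. Affinity was read by AlphaSeq, a pooled yeast mating assay with surface-displayed partners. Binding brings cells together so that they mate, and sequencing counts the barcode pairs among the diploids. Scores were corrected for input abundance and mapped to Kd with protein pairs of known affinity run in the same pool. Mating was done three times.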

Variants are written as CDR1, CDR2 and CDR3 of the light chain (limits as in the source). Parent: KSSQSVLYESRNKNSVA, WASTRES, QQYHRLPLS.
Affinities are written as log10 Kd with Kd in nM; a lower number is a better binder.
A mean of the replicates is given; it leaves out those without a signal.
A pair that was not seen in that replicate is written "nd"; this usually means weak binding, but a binder can also be missed.
Three control strains display no target. For library AAYL50, 18% of the pairings with them gave a signal, with a median of 4.19 and one signal in twenty below 2.99, so weak values seen in few replicates may be background. Also given: how often the same scFv was detected with the empty control strains, with their mean in brackets.

CDR-L1	CDR-L2	CDR-L3	replicates, log10 nM	mean log10 Kd (nM)	signal with controls
KSSQSVLYESRNMNMVA	WASTRES	QFYHRLPLS	3.59 / 3.27 / 5.38	4.08	4 of 9 (3.87)
KSSQSVLYESRNKNSVA	WAHTRES	QQYHRLPLS	3.15 / 4.85 / 3.62	3.87	1 of 9 (4.87)
ASSQSVLYESRGKNSVA	WASTRES	QVYHRLPLS	2.65 / nd / 3.46	3.06	1 of 9 (1.95)
KSSQSVLYESRNKNTVY	WASTVES	QQYHRLPLS	nd / nd / nd	nd	0 of 9
KSSQSVLYEERNKTSVA	WASTRES	QQYHRLPLS	2.07 / 2.24 / 1.99	2.10	1 of 9 (4.04)
KSSQSVLYESRNKNSVA	WASTRES	QQYERLPLM	nd / nd / 3.03	3.03	0 of 9
KSSQSVLYESRNKNSVA	WASTDES	QQYHRLMLS	nd / nd / nd	nd	0 of 9
KSDQSVAYESRNKNSVA	WASTRES	QQWHRLPLS	nd / nd / 5.53	5.53	3 of 9 (4.63)
KSSQAVLYESRNHNSVA	WASTRES	QQYHRLPLS	1.10 / 1.09 / 1.08	1.09	0 of 9
KSSQTVLTESRNKNSVA	WASTRES	QQVHRLPLS	nd / 5.20 / nd	5.20	1 of 9 (3.90)
KSSQSVLYESRNKFSVH	WASTRES	QQYHRLPLS	4.66 / nd / 5.21	4.94	2 of 9 (4.28)
KSSQSLLYESRNENSVA	WASTVES	QQYHRLPLS	1.04 / 1.31 / 1.10	1.15	4 of 9 (4.40)
KSSQKVLYESRNKWSVA	WASTRES	QQYHRLMLS	nd / nd / nd	nd	0 of 9
KSPQSVLYESRNKNMVA	VASTRES	QQYHRLPLS	nd / nd / nd	nd	1 of 9 (3.53)
ESSQSVLTESRNKNSVA	WAITRES	QQYHRLPLS	2.28 / 2.39 / 2.68	2.45	7 of 9 (4.66)
KSSCSCLYESRNKNSVA	WASTRES	QQYHRLPLQ	2.28 / 3.03 / 2.17	2.49	0 of 9
KSSQSVLFESRNSNSVA	WASTRES	QQYHRLPPS	nd / 3.92 / nd	3.92	1 of 9 (4.69)
KSSQSVLYESRNKNSVA	WAITREP	QQYHPLPLS	nd / nd / 3.81	3.81	1 of 9 (4.65)
KSSPSVLYESRNKNSVA	WASTREA	YQYHRLPLS	0.45 / 0.90 / 1.30	0.88	0 of 9
KVSQSVLYESSNKNSVA	WASTREN	QQYHRLPLS	nd / 4.95 / nd	4.95	1 of 9 (3.08)
KSSQSVLYESRNKNSVA	WASTNVS	QHYHRLPLS	nd / nd / nd	nd	0 of 9
KSSQHVLYESRNKNSVA	WACTIES	QQYHRLPLS	nd / 3.76 / 6.03	4.90	3 of 9 (4.33)
KSSQSVLFESRNKFSVA	WASTRES	QQYHRLPES	nd / 4.83 / 5.03	4.93	0 of 9
KSSQSMLYESRNKNSVA	WVSTRES	QPYHRLPLS	nd / nd / nd	nd	0 of 9
KSSMSVLYESRNKNSVA	WASRRES	QQYHRCPLS	nd / 5.14 / 4.25	4.70	2 of 9 (3.33)
KSSQRVLYESRNKNSVH	WASTRES	QQYHRLHLS	nd / nd / 3.98	3.98	6 of 9 (4.25)
KSSQFVLDESRNKNTVA	WASTRES	QQYHRLPLS	0.68 / 0.81 / 0.95	0.81	2 of 9 (4.34)
KSSWSVLYENRNKYSVA	WASTRES	QQYHRLPLS	2.11 / 2.07 / 1.98	2.05	4 of 9 (4.67)
TSSQSVAYESLNKNSVA	WASTRES	QQYHRLPLS	1.50 / 1.53 / 1.82	1.62	1 of 9 (4.86)
KSSQSVLYESRNKNSVA	WAYTRES	QQYHRRPLS	nd / nd / nd	nd	0 of 9
KSSQSVLYESRNKNSVL	GASTRES	QQYQRLPLS	nd / nd / 5.09	5.09	3 of 9 (4.46)
KSSQSVLYEERNKNSVA	WAGTRES	QQYHRLPLG	2.55 / 3.29 / 3.16	3.00	2 of 9 (4.25)
KSSQSVLYESRNKHSVA	WASTKES	QQYHRLPLS	1.32 / 1.47 / 1.46	1.42	0 of 9
KSSQSVLYESRNKNSVA	WASWRES	AQYHRLPTS	5.25 / 5.15 / 4.48	4.96	5 of 9 (4.19)
SSSMSVLSESRNKNSVA	WASTRES	QQYHRLPLS	0.73 / 0.91 / 0.78	0.81	1 of 9 (4.28)
KSSQSVLYESTNKPSVA	WASKRES	QQYHRLPLS	0.91 / 1.01 / 0.93	0.95	2 of 9 (4.73)
KSSQSLLYESRNKNSVA	WASTRES	QQYHRLRQS	3.94 / nd / nd	3.94	0 of 9
KSSQSVLKESHNKNSVA	WASTRSS	QQYHRLPLS	1.19 / 1.24 / 1.47	1.30	1 of 9 (3.60)
KSSQSVLYASREKESVA	WASTRES	QQYHRLPLS	1.20 / 1.31 / 1.26	1.26	1 of 9 (3.68)
KSSQSGLYESRNSNSVA	WALTRES	QQYHRLPLS	3.33 / 2.96 / 3.12	3.13	1 of 9 (2.89)
KSSQSVVYESRNKNSVA	WASTRES	QQYHRLPLS	1.11 / 1.18 / 1.15	1.15	1 of 9 (3.10)

From the list, the first 3 with no signal in any replicate:

CDR-L1	CDR-L2	CDR-L3	replicates, log10 nM	mean log10 Kd (nM)	signal with controls
KSSQSVLYESRNKNTVY	WASTVES	QQYHRLPLS	nd / nd / nd	nd	0 of 9
KSSQSVLYESRNKNSVA	WASTDES	QQYHRLMLS	nd / nd / nd	nd	0 of 9
KSSQKVLYESRNKWSVA	WASTRES	QQYHRLMLS	nd / nd / nd	nd	0 of 9